# Assay results taken from ChEMBL document CHEMBL1145196, “Medicinal chemistry driven approaches toward novel and selective serotonin 5-HT6 receptor ligands” (J Med Chem, 2005).
# Amino acid sequences for entries named in this document (tags omitted).
# UniProt P50406, whole entry: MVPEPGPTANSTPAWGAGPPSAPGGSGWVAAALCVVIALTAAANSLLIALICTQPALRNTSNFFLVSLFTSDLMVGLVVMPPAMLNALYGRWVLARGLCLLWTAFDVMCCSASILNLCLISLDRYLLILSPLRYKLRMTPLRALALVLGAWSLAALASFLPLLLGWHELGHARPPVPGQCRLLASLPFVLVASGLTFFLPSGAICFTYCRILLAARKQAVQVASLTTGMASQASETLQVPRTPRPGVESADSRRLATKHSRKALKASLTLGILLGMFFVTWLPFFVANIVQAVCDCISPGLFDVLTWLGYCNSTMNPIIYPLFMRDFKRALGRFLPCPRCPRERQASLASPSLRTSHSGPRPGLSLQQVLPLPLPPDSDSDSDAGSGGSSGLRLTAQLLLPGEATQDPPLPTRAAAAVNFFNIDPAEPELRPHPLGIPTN
# Target: T1, 5-hydroxytryptamine receptor 6 (Homo sapiens, UniProt P50406)
# Experiment: Agonist activity against cAMP accumulation in C6 cells expressing 5-hydroxytryptamine 6 receptor
# Format: functional, cell-based
# Details: Rattus norvegicus, filed as agonist
row,SMILES,Activity
1,CCN(CC)CCc1c[nH]c2ccc(NS(=O)(=O)c3ccc4ccccc4c3)cc12,Agonist
2,CCN(CC)CCc1c[nH]c2ccc(NS(=O)(=O)c3cccc4ccccc34)cc12,Agonist

# Target: T1, 5-hydroxytryptamine receptor 6
# Experiment: Antagonist activity against cAMP accumulation in C6 cells expressing 5-hydroxytryptamine 6 receptor
# Format: functional, cell-based
# Details: Rattus norvegicus, filed as antagonist
# Procedure, shortened: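 C6 cells detached with trypsin 2 h before assay, seeded ~50 000 cells/well. Compounds added with or without forskolin for 30 min. Data are means of at least three separate experiments.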
row,Activity,SMILES
1,Antagonist,CN1CCC(c2c[nH]c3ccc(NS(=O)(=O)c4cccc5cccnc45)cc23)CC1
2,Antagonist,CN1CCC(c2c[nH]c3ccc(NS(=O)(=O)c4ccc(-c5ccccc5)cc4)cc23)CC1

# More lines, now with the values behind:
row,SMILES,Activity
1,CCN(CC)CCc1c[nH]c2ccc(NS(=O)(=O)c3ccc4ccccc4c3)cc12,Antagonist
2,CN(C)CCn1ccc2cc(NS(=O)(=O)c3cccc4ccccc34)ccc21,Antagonist
3,Cc1cccc2c1N(C1CCN(S(=O)(=O)c3cccc4ccccc34)CC1)C(=O)OC2,Antagonist
